The test deals with α7 nAChRs (Rattus norvegicus, UniProt Q05941). Description: In vitro competitive binding experiment with [125I] α-bgt as radioactive standard. Conditions: for Ki: read-out: Ki (nM), in vitro binding affinity to α7 nAChRs, 0.4 nM [125I] α-bgt, Cheng-Prusoff, mean of three measurements ± SD; for IC50: read-out: α7 nAChR IC50, inhibition of binding of 0.4 nM [125I] α-bgt. Further details: species or system SD rats.

By UniProt entry, the sequences of proteins in these tests, tags left out. Residues count along the entry.
UniProt Q05941, 23-502 limits assumed: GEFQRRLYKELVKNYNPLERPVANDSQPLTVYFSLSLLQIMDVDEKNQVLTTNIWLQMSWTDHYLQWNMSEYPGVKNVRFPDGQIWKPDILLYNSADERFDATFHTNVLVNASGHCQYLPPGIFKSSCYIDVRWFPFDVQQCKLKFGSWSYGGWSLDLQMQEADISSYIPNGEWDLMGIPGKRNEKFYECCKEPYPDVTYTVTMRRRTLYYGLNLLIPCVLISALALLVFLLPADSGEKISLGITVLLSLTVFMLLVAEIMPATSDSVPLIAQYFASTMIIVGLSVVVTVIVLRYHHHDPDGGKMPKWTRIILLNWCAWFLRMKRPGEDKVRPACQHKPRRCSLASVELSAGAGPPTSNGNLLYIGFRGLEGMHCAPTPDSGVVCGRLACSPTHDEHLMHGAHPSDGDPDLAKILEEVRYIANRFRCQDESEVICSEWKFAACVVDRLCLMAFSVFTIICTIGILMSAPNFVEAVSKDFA

5 compounds from US20200147243A1, “LIGAND COMPOUND OF ALPHA7 NICOTINIC ACETYLCHOLINE RECEPTOR AND APPLICATION THEREOF” (BEIJING NORMAL UNIVERSITY, priority 2017, published 2020) can be followed below.

`O=C(Oc1ccc2c(ccn2CCF)c1)N1CCN2CCC1CC2`: the Ki is 365 nM. Same read-out and setting: for `Fc1ncccc1-c1ccc2oc(N3CCN4CCC3CC4)nc2n1` the value was 21.8 nM. Take `O=C1c2cc(N3CCN4CCC3CC4)ccc2-c2cccc(F)c21` [II-15]: the Ki was found to be 2.98 nM and the IC50 is 6.23 nM. The corresponding values for `O=C1c2cc(F)ccc2-c2ccc(N3CCN4CCC3CC4)cc21` [II-6] are 7.24 nM and 20.9 nM.

As to `O=C(Oc1ccc2ccn(CCF)c2c1)N1CCN2CCC1CC2`, the Ki is 224 nM.
